# Experimental data: patent US20170176440A1, “METHODS AND COMPOSITIONS FOR EVALUATING BREAST CANCER PATIENTS” (THE BOARD OF REGENTS OF THE UNIVERSITY OF TEXAS SYSTEM, priority 2014, published 2017)
# The chains behind the UniProt entries cited, without tags or fusion partners.
# UniProt Q92731, whole entry: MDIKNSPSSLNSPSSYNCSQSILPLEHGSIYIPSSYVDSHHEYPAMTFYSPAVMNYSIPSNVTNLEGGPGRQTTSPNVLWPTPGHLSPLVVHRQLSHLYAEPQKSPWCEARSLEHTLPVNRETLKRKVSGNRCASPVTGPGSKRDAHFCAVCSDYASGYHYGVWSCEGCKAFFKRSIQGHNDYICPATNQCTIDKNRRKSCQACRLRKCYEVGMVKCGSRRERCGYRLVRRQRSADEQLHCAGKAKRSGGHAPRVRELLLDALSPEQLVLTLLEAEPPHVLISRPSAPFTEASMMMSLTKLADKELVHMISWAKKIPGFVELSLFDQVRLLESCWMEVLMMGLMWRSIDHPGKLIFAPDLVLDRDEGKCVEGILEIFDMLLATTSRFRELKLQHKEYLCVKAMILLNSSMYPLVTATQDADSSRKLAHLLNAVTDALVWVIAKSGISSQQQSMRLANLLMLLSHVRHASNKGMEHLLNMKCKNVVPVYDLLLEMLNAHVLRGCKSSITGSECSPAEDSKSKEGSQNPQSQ
# Molecular target: T1, EYA2-ERβ interaction (Homo sapiens, UniProt Q92731)
# T1 construct: made in house; the other protein was 35S-labelled and in vitro translated
# Assay: Co-IP of endogenous EYA2 and ERβ in MCF7 breast cancer cells
# Assay type: cell-based
# Details: E2 10 nM
structure (smiles),measurement,value
"C[C@]12CC[C@@H]3c4ccc(O)cc4CC[C@H]3[C@@H]1CC[C@@H]2O [E2, 17-β-estradiol]",EYA2-ERβ interaction (co-IP),enhanced
